Laboratory results published in patent publication US7442784B2, “Ligand activated transcriptional regulator proteins” (The Scripps Research Institute, priority 1999, dated 2008).

Protein sequences, listed by entry. Tags and fused reporters are not part of them. Residues count along the entry.
UniProt P03372, 258-554 G521R: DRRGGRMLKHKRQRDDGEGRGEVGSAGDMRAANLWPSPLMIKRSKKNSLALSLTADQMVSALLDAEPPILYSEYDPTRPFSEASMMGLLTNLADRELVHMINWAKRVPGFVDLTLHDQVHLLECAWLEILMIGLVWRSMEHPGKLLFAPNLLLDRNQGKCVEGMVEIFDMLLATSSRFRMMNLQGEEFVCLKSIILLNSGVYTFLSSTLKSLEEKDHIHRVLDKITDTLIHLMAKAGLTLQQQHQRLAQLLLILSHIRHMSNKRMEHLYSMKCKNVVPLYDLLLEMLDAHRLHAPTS

Biological target: C7LBDBS with a G521R mutation (Homo sapiens, UniProt P03372, G521R)
Conditions: 100 nM; Hep3BL liver cells

ability to induce the regulator: fully active
Structure (SMILES): O=C(c1ccc(OCN2CCCCC2)cc1)c1c(-c2ccc(O)cc2)sc2cc(O)ccc12 [raloxifen]
